Test results as given in patent US20240173312A1, “Pharmaceutical Composition Comprising a Benzoheterocyclic Compound and Androgen Receptor Pathway Modulator and Application Thereof” (KANGPU BIOPHARMACEUTICALS, LTD., priority 2015, published 2024).
Like-named read-outs stand apart in the source and are kept apart here.

Tested on: Vcap cells (androgen receptor (+) prostate cancer cells)
Test: CTG cell proliferation assay (CellTiter-Glo)
Conditions: for viability at 0.1 µM / viability at 1 µM / viability at 10 µM: Homo sapiens, VCaP, 120 h
[1] = read-out: Survival rate of Vcap cells, Table 3, tested compound alone
[2] = read-out: Survival rate of Vcap cells, Table 9, tested compound alone
[3] = read-out: Survival rate of Vcap cells, Table 10, tested compound alone

**Q.** With `CNC(=O)c1ccc(N2C(=S)N(c3cnc(C#N)c(C(F)(F)F)c3)C(=O)C23CCC3)cc1F` [ARN-509, reference compound] as the compound, how does the viability at 0.1 µM [1] read?
**A.** Its viability at 0.1 µM is 81.8%.

**Q.** What about the viability at 1 µM (read-out: Survival rate of Vcap cells, Table 3, tested compound alone, 1.0 μM) of the same compound?
**A.** The viability at 1 µM was 52.2%.

**Q.** What about the viability at 10 µM [1] of the same compound?
**A.** Its viability at 10 µM is 48.9%.

**Q.** What about the viability at 0.1 µM [2] of the same compound?
**A.** The viability at 0.1 µM was 95.9%.

**Q.** What about the viability at 1 µM (read-out: Survival rate of Vcap cells, Table 9, tested compound alone, 1.0 μM) of the same compound?
**A.** The viability at 1 µM was 70.4%.

**Q.** And the viability at 10 µM [2]?
**A.** Its viability at 10 µM is 61.9%.

**Q.** What about the viability at 0.1 µM [3] of the same compound?
**A.** The viability at 0.1 µM was 95.9%.

**Q.** What about the viability at 1 µM (read-out: Survival rate of Vcap cells, Table 10, tested compound alone, 1.0 μM) of the same compound?
**A.** The viability at 1 µM was 70.4%.

**Q.** What about the viability at 10 µM [3] of the same compound?
**A.** The viability at 10 µM was 61.9%.

**Q.** What about the “Survival rate of Vcap cells” value (Table 3, tested compound alone, 1.0 μM) of the same compound?
**A.** Its value is 52.2%.

**Q.** What about the “Survival rate of Vcap cells” value (Table 9, tested compound alone, 1.0 μM) of the same compound?
**A.** Its value is 70.4%.

**Q.** And the “Survival rate of Vcap cells” value (Table 10, tested compound 0.1 μM in combination with 1 μM B001)?
**A.** Its value is 50.9%.

**Q.** And the “Survival rate of Vcap cells” value (Table 10, tested compound 0.1 μM in combination with 1 μM K001)?
**A.** Its value is 54.1%.

**Q.** And the “Survival rate of Vcap cells” value (Table 10, tested compound 1.0 μM in combination with 1 μM B001)?
**A.** Its value is 42.6%.

**Q.** And the “Survival rate of Vcap cells” value (Table 10, tested compound 1.0 μM in combination with 1 μM K001)?
**A.** Its value is 45.1%.

**Q.** What about the “Survival rate of Vcap cells” value (Table 10, tested compound 10 μM in combination with 1 μM B001) of the same compound?
**A.** Its value is 40.9%.

**Q.** And the “Survival rate of Vcap cells” value (Table 10, tested compound 10 μM in combination with 1 μM K001)?
**A.** Its value is 41.8%.
